Results from US20020019332A1, “METHOD OF INDUCING APOPTOSIS IN B-LYMPHOCYTES” (priority 1999, published 2002).

Tested on: PKCζ
Conditions: PDBu-treated B cells, Western blot

CCCC(=O)O[C@@H]1[C@@H](C)[C@@]2(O)[C@@H](C=C(CO)C[C@]3(O)C(=O)C(C)=C[C@@H]23)[C@@H]2C(C)(C)[C@]12OC(=O)CCC [PDBu]
level of expression of PKCζ: decreased only slightly
